From paper PMC9578043 (Journal of medicinal chemistry, 2021)

Molecular target: unliganded TTR tetramers isolated from human plasma (Homo sapiens, UniProt P02766)

SMILES	loss in TTR FP potency relative to 14	TTR activity (in words)
Cc1n[nH]c(C)c1N1CCC2(CCN(c3cc(C(=O)O)ccc3F)C2)C1 (racemic) [(±)-38, (±)-3-(7-(3,5-dimethyl-1H-pyrazol-4-yl)-2,7-diazaspiro[4.4]nonan-2-yl)-4-fluorobenzoic acid]	5 fold	
Cc1n[nH]c(C)c1N1CC2(CN(c3cc(C(=O)O)ccc3F)C2)C1 [compound 44, 3-(6-(3,5-Dimethyl-1H-pyrazol-4-yl)-2,6-diazaspiro[3.3]heptan-2-yl)-4-fluorobenzoic Acid]		inactive
O=C(O)c1ccc(F)c(N2CCN(c3nn[nH]n3)CC2)c1 [compound 48, 3-(4-(2H-tetrazol-5-yl)piperazin-1-yl)-4-fluorobenzoic acid]		complete loss
